In this assay the target is Amine oxidase [flavin-containing] A (Homo sapiens, UniProt P21397).

Protein sequences, listed by entry. Tags and fused reporters are not part of them.
UniProt P21397, whole entry: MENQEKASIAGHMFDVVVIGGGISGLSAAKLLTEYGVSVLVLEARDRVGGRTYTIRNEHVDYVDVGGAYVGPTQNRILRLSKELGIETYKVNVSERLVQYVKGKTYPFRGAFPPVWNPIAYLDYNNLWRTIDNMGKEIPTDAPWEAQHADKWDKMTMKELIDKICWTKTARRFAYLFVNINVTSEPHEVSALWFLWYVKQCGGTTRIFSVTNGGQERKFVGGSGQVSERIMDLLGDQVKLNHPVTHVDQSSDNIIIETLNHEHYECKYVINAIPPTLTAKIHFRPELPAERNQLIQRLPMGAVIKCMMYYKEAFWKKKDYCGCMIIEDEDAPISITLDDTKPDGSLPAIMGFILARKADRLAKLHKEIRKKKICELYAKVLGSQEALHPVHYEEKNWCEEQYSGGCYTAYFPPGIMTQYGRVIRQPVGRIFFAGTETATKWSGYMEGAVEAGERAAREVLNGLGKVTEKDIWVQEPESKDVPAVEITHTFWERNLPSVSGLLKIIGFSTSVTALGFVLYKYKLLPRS

Molecules are shown by their SMILES.

By Ki is commonly meant the equilibrium dissociation constant of an inhibitor or competing ligand from its target. Compound `NC1CC1c1ccc(NC(=O)C(Cc2ccccc2)NC(=O)OCc2ccccc2)cc1` (stereo unspecified) gave a Ki of 1.2 µM.

The values are drawn from ChEMBL document CHEMBL1938384, “Lysine demethylases inhibitors” (J Med Chem, 2011).
